Laboratory results taken from US20220289727A1, “ENZYME INHIBITORS” (KALVISTA PHARMACEUTICALS LIMITED, priority 2019, published 2022).

Chains of the proteins cited; added tags and fusions are not shown. Residues count along the entry.
UniProt P00748, 373-615 limits assumed: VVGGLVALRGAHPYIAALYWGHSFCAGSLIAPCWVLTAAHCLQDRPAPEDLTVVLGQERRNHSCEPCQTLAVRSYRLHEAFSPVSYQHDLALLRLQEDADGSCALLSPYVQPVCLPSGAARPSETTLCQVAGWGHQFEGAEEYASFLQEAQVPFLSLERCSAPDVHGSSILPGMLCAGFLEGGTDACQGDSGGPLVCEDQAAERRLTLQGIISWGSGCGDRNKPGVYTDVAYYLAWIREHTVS
UniProt P00748, 20-372 partner limits assumed: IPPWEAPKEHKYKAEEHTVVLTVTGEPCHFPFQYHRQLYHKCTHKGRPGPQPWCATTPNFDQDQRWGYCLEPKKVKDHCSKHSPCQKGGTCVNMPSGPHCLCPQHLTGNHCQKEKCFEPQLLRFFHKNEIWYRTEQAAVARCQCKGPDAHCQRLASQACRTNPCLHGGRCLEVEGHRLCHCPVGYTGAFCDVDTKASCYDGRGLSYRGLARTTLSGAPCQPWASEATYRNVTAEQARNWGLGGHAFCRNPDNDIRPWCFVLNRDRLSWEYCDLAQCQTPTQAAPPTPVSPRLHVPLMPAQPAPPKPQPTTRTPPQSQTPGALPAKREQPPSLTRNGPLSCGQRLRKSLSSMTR

Target: Human Factor XIIa (Homo sapiens, UniProt P00748)
Assay: Determination of FXIIa inhibitory activity in vitro (fluorogenic substrate H-DPro-Phe-Arg-AFC)
Type: biochemical
Details: read-out: Human FXIIa IC50, 25° C., residual enzyme activity (initial rate)

Nc1nccc2cc(CNC(=O)c3cc4c(Br)cccc4s3)ccc12
pIC50: > 6.00

pIC50: −log10 of the molar value.
